Laboratory results: article PMC9637144

Assays:
[1] = target: human insulin receptor (A-isoform) ectodomain (human); experiment: radioligand binding
[2] = target: human IGF1R ectodomain (Δβ mutant) (human) (UniProt P08069); experiment: radioligand binding
[3] = target: IGF1Rzip (IGF1R ectodomain construct with leucine zipper) (human) (UniProt P08069); experiment: cryo-EM structure

Substance | IC50 [1] | IC50 [2] | stoichiometry N (scLCDV1-VILP per IGF1R ectodomain dimer) [3]
double chain LCDV1-VILP (Lymphocystis disease virus-1 viral insulin/IGF-1 like peptide) | > 1000 nM | – | –
human insulin (unlabeled) (ligand) | 0.5 nM | – | –
single chain LCDV1-VILP (Lymphocystis disease virus-1 viral insulin/IGF-1 like peptide) | – | 3.3 nM | 2
